biological target: human mGluR2 (Homo sapiens (Human), UniProt Q14416); test: FLIPR Ca2+ mobilization antagonist assay in CHO dhfr- cells expressing recombinant human mGluR2 and Gα16; format: cell-based; details: antagonist response after addition of 2,500 nM glutamate, Fluo-4 AM, FLIPR384

The chains behind the UniProt entries cited, without tags or fusion partners. Residues count along the entry.
UniProt Q14416, 19-872: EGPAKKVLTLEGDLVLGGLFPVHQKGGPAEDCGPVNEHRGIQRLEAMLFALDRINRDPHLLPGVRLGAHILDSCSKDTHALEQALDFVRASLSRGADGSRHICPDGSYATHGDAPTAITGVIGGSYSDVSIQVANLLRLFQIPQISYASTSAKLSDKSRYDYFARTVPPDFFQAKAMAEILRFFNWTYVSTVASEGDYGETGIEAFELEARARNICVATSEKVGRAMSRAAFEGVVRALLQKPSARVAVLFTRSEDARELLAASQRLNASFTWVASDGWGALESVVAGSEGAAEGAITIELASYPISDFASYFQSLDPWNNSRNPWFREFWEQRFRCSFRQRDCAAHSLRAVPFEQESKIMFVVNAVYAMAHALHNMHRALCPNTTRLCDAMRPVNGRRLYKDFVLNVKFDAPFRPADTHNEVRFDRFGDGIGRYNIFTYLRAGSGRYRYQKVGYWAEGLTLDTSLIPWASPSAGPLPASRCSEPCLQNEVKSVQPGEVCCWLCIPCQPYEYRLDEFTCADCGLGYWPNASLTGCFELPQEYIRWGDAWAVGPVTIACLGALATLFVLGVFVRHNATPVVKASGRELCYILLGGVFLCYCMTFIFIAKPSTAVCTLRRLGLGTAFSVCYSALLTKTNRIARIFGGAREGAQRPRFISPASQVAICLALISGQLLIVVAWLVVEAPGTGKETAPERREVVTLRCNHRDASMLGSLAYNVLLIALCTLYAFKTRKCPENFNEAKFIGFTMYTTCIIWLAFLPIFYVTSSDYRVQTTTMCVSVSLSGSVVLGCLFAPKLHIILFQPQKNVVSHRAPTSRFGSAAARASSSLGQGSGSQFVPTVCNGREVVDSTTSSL

IC50 [nM]	Structure (SMILES)
25	Cn1cc(-c2cc(C(N)=O)nc3cc(CN4CCCC(C(F)(F)F)C4)ccc23)cn1 (stereo not shown) [Example 4-71, 4-(1-methyl-1H-pyrazol-4-yl)-7-{[3-(trifluoromethyl)piperidin-1-yl]methyl}quinoline-2-carboxamide]
24	CC(C)CC1CN(Cc2ccc3c(-c4cnn(C)c4)cc(C(N)=O)nc3c2)CCO1 (stereo not shown) [Example 4-100, 7-{[2-(2-methylpropyl)morph-olin-4-yl]methyl}-4-(1-methyl-1H-pyrazol-4-yl)quinoline-2-carboxamide]
1150	NC(=O)c1cc(-c2cn[nH]c2)c2ccc(CN3CCOC(C(F)(F)F)C3)cc2n1 (stereo not shown) [Example 4-67, 4-(1H-pyrazol-4-yl)-7-{[2-(trifluoromethyl)morpholin-4-yl]methyl}quinoline-2-carboxamide]
55	CCC1CN(Cc2ccc3c(-c4cnn(C)c4)cc(C(N)=O)nc3c2)CCO1 (stereo not shown) [Example 4-99, 7-[(2-ethylmorpholin-4-yl)methyl]-4-(1-methyl-1H-pyrazol-4-yl)quinoline-2-carboxamide]
394	C[C@H]1COCCN1Cc1ccc2c(-c3cnn(C)c3)cc(C(N)=O)nc2c1 [Example 4-59, 7-{[(3S)-3-methylmorpholin-4-yl]methyl}-4-(1-methyl-1H-pyrazol-4-yl)quinoline-2-carboxamide]
42	NC(=O)c1cc(-c2ccc(F)cc2)c2ccc(CN3CCCCS3(=O)=O)cc2n1 [Example 2-33, 7-[(1,1-dioxido-1,2-thiazinan-2-yl)methyl]-4-(4-fluorophenyl)quinoline-2-carboxamide]
159	Cc1ccc2c(-c3ccc(F)cc3)cc(C(N)=O)nc2c1 [Example 1-7, 4-(4-fluorophenyl)-7-methylquinoline-2-carboxamide]
10	COc1ccc(-c2cc(C(N)=O)nc3cc(C(C)Cc4ccc(CF)nc4)ccc23)cc1 (stereo not shown) [Example 8-46, 7-{2-[6-(fluoromethyl)pyridin-3-yl]-1-methylethyl}-4-(4-methoxyphenyl) quinoline-2-carboxamide]
17	CC1CCC(c2cc(C(N)=O)nc3cc(CN4C(=O)CCC4=O)ccc23)CC1 (stereo not shown) [Example 2-28, 7-[(2,5-dioxopyrrolidin-1-yl)methyl]-4-(4-methylcyclohexyl)quin-oline-2-carboxamide]
31	NC(=O)c1cc(-c2ccc(F)cc2)c2ccc(Cn3cc(C(=O)C4CC4)cn3)cc2n1 [Example 3-11, 7-{[4-(cyclopropylcarbonyl)-1H-pyrazol-1-yl]methyl}-4-(4-fluorophenyl)quinoline-2-carboxamide]
46	C[C@@H]1COC[C@@H](C)N1Cc1ccc2c(-c3cnn(C)c3)cc(C(N)=O)nc2c1 [Example 4-63, 7-{[(3R,5R)-3,5-dimethylmorpholin-4-yl]methyl}-4-(1-methyl-1H-pyrazol-4-yl)quinoline-2-carboxamide]
15	Cn1cc(-c2cc(C(N)=O)nc3cc(Cc4ccnc(C#N)c4)ccc23)cn1 [Example 6-20, 7-[(2-cyanopyridin-4-yl)methyl]-4-(1-methyl-1H-pyrazol-4-yl)quinoline-2-carboxamide]
48	COc1ccc(Cc2ccc3c(-c4cnn(C)c4)cc(C(N)=O)nc3c2)cn1 [Example 6-17, 7-[(6-methoxypyridin-3-yl)methyl]-4-(1-methyl-1H-pyrazol-4-yl)quinoline-2-carboxamide]
513	NC(=O)c1cc(-c2cn[nH]c2)c2ccc(CN3CCO[C@@H](C(F)(F)F)C3)cc2n1 [Example 4-83, 4-(1H-pyrazol-4-yl)-7-{[(2R)-2-(trifluoromethyl)morpholin-4-yl]methyl}quinoline-2-carboxamide]
6	COc1ccc(-c2cc(C(N)=O)nc3cc(C(O)Cc4ccc(Cl)nc4)ccc23)cc1 (stereo not shown) [Example 8-28, 7-[2-(6-chloropyridin-3-yl)-1-hydroxyethyl]-4-(4-methoxyphenyl) quinoline-2-carboxamide]
36	Cn1cc(-c2cc(C(N)=O)nc3c(F)c(Cc4cnc(C5CC5)nc4)ccc23)cn1 [Example 7-33, 7-[(2-cyclopropylpyrimidin-5-yl)methyl]-8-fluoro-4-(1-methyl-1H-pyrazol-4-yl)quinoline-2-carboxamide]
681	NC(=O)c1cc(-c2ccccc2Br)c2ccccc2n1 [Example 1-16, 4-(2-bromophenyl)quinoline-2-carboxamide]
125	NC(=O)c1cc(-c2ccc(F)cc2)c2ccc(C(=O)N3CCCCC3)cc2n1 [Example 5-5, 4-(4-fluorophenyl)-7-(piperidin-1-ylcarbonyl)quinoline-2-carboxamide]
5	COc1ccc(-c2cc(C(N)=O)nc3cc(C(C)Cc4cccnc4)ccc23)cc1 (stereo not shown) [Example 8-41, 4-(4-methoxyphenyl)-7-(1-methyl-2-pyridin-3-ylethyl)quinoline-2-carboxamide]
23	CC1CN(Cc2ccc3c(-c4ccc(F)cc4)cc(C(N)=O)nc3c2)CC(C(F)(F)F)N1 (stereo not shown) [Example 4-112, 4-(4-fluorophenyl)-7-{[3-methyl-5-(trifluoromethyl)piperazin-1-yl]methyl}quinoline-2-carboxamide]
56	NC(=O)c1cc(-c2ccc(F)cc2)c2ccc(CN3CCS(=O)(=O)CC3)cc2n1 [Example 4-42, 7-[(1,1-dioxidothiomorpholin-4-yl)methyl]-4-(4-fluorophenyl)quino-line-2-carboxamide]
97	Cn1cc(-c2cc(C(N)=O)nc3cc(CN4CCS(=O)(=O)C(C5CC5)C4)ccc23)cn1 (stereo not shown) [Example 4-127, 7-[(2-cyclopropyl-1,1-dioxidothiomorpholin-4-yl)methyl]-4-(1-methyl-1H-pyrazol-4-yl)quinoline-2-carboxamide]
478	N#C[C@@H]1CCCN1Cc1ccc2c(-c3ccc(F)cc3)cc(C(N)=O)nc2c1 [Example 4-32, 7-{[(2S)-2-cyanopyrrolidin-1-yl]methyl}-4-(4-fluorophenyl)quino-line-2-carboxamide]
15	CC1CN(Cc2ccc3c(-c4ccc(F)cc4)cc(C(N)=O)nc3c2)CC(C(F)(F)F)N1 (stereo not shown) [Example 4-114, 4-(4-fluorophenyl)-7-{[3-methyl-5-(trifluoromethyl)piperazin-1-yl]methyl}quinoline-2-carboxamide]
12	Cn1cc(-c2cc(C(N)=O)nc3cc(CN4CCO[C@@H](C(F)(F)F)C4)ccc23)cn1 [Example 4-54, 4-(1-methyl-1H-pyrazol-4-yl)-7-{[(2R)-2-(trifluoromethyl)morpholin-4-yl]methyl}quinoline-2-carboxamide]
9	COc1ccc(-c2cc(C(N)=O)nc3cc(CCc4cccnc4N)ccc23)c(F)c1 [Example 8-31, 7-[2-(2-aminopyridin-3-yl)ethyl]-4-(2-fluoro-4-methoxyphenyl) quinoline-2-carboxamide]
15	CCC(O)(c1cn(Cc2ccc3c(-c4ccc(OC)cc4F)cc(C(N)=O)nc3c2)cn1)C(F)(F)F (stereo not shown) [Example 3-50, 4-(2-fluoro-4-methoxyphenyl)-7-({4-[1-hydroxy-1-(trifluoromethyl)propyl]-1H-imidazol-1-yl}methyl)quinoline-2-carboxamide]
81	CC(C)n1cc(-c2cc(C(N)=O)nc3cc(CN4CCOC(C(F)(F)F)C4)ccc23)cn1 (stereo not shown) [Example 4-78, 4-[1-(1-methylethyl)-1H-pyrazol-4-yl]-7-{[2-(trifluoromethyl)morpholin-4-yl]methyl}quinoline-2-carboxamide]
